This note sets out measurements from patent US12599592B2, “Therapeutic small molecules for treatment of pulmonary hypertension” (UNIVERSITY OF PITTSBURGH—OF THE COMMONWEALTH SYSTEM OF …, priority 2020, dated 2026).

In assay [1] the test system is SU5416-hypoxic pulmonary arterial hypertension rats. In words: SU5416-hypoxia pulmonary arterial hypertension rat model. The conditions noted are these: I-BET762 30 mg/kg i.p. daily, Days 21-35.
Assay [2] concerns chronically hypoxic mice. As to the kind of experiment: Hypoxia-induced pulmonary hypertension mouse model. The conditions noted are these: I-BET762 30 mg/kg daily oral gavage, chronic hypoxia.
Assay [3] relates to monocrotaline-exposed pulmonary arterial hypertension rats. In words: Monocrotaline (MCT) pulmonary arterial hypertension rat model. The conditions noted are these: I-BET762 30 mg/kg i.p. daily, Days 12-26 post-MCT.

In the case of `CCNC(=O)C[C@@H]1N=C(c2ccc(Cl)cc2)c2cc(OC)ccc2-n2c(C)nnc21` [I-BET762, reference compound], the “Fulton index (RV/LV+S)” value in assay [1] is reported as “reduced”. Moreover, the Fulton index entry in assay [2] is on record as “without significant effect”. Besides, in assay [3], the “Fulton index (RV/LV+S)” value is listed as “reduced”, the “LGALS8 in pulmonary arterioles (immunofluorescence)” value is “decreased”, the RVSP result is given as “reduced” and the arteriolar muscularization entry is given as “reduced”. Further, the “cleaved caspase-3 (CC-3) in pulmonary arterioles” value in assay [3] was “decreased”.
